Laboratory results reported in PubChem BioAssay AID924 (National Center for Advancing Translational Sciences (NCATS), 2007).
The entries are a selection whose mix differs from that of the whole data set. Some tests of the compounds listed are not included; inactive here does not mean inactive elsewhere. Results filed as inconclusive are left out. Activity calls are given as the source filed them. Calls follow the shape of the dose curve; as a rule, active = well fitted cell-killing curve with a large enough effect; inconclusive = small, poorly fitted or top-dose-only effect; inactive = no such curve, though single readings can be large or run the other way.

Experiment: qHTS Screen for Compounds that Selectively Target Cancer Cells with p53 Mutations: Cytotoxicity of p53ts Cells at the Permissive Temperature;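 also: 0% = DMSO and -100% = full killing by reference compound; nearly all actives have a fitted effect of over 55% in size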
Conditions: H1299-p53A138V at 32C, ATP luminescence viability, 24 h; at 46.1 µM (top of the series) unless noted

SMILES | activity change, negative = cytotoxicity
CCOc1cccc(C(=O)NCC2(N(C)C)CCCCC2)c1 | inactive: -12.1%
CN(C)C1(CNC(=O)c2ccccc2[N+](=O)[O-])CCCCC1 | inactive: -4.69%
CN(C)C1CCCC1OC(=O)C(O)(c1ccccc1)c1ccccc1 (configuration not stated) | inactive: 27.4%
CCCCOc1ccccc1C(=O)NCC1(N(C)C)CCCCC1 | inactive: -5.69%
CN(C)C1(CNC(=O)c2cccc(Cl)c2)CCCCC1 | inactive: -4.2%
CN(C)C1(CNC(=O)c2ccccc2F)CCCCC1 | inactive: 4.56%
Cc1cccc(C(=O)NCC2(N(C)C)CCCCC2)c1 | inactive: -10.7%
COc1cc(C(=O)NCC2(N(C)C)CCCCC2)cc(OC)c1OC | inactive: -1.09%
CN(C)c1cccc(C(=O)NCC2(N(C)C)CCCCC2)c1 | inactive: -3.44%
CC(C)Oc1ccc(C(=O)NCC2(N(C)C)CCCCC2)cc1 | inactive: -6.55%
O=C(OC1CN2CCC1CC2)C(CO)(c1ccccc1)c1ccccc1 (configuration not stated) | inactive: 4.7%
CN1CC[C@H](OC(=O)[C@](O)(c2ccccc2)C2CCCC2)C1 | inactive: 2.48% [at 9.22 µM]
COc1cccc(C(=O)NCC2(N3CCOCC3)CCCCC2)c1 | inactive: 2.81%
CN1CCC[C@H](OC(=O)[C@](O)(c2ccccc2)C2CCCC2)C1 | inactive: 2.59% [at 9.22 µM]
CC(C)COc1ccc(C(=O)NCC2(N(C)C)CCCCC2)cc1 | inactive: -5.01%
C=C(C)C#C[C@@](O)(C(=O)OC1CCN(C)CC1)c1ccccc1 | inactive: -3.9% [at 9.22 µM]
COc1ccc(C(=O)NCC2(N(C)C)CCCCC2)cc1Cl | inactive: -9.53%
